Results reported in BindingDB's records for patent US9845310 (Amgen, 2017).

Molecular target: T1, Apelin receptor (Homo sapiens, UniProt P35414)
T1 sequence (P35414 whole entry): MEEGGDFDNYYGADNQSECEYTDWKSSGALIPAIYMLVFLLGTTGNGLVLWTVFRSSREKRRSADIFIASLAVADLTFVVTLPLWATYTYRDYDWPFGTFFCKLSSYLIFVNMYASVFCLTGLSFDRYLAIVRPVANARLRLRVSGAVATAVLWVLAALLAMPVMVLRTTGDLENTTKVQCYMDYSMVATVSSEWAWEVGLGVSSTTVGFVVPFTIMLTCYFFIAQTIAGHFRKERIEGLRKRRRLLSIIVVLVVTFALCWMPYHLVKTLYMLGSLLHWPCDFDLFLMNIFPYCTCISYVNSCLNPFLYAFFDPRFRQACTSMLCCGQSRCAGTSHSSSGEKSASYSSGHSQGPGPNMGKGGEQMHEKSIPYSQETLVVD

COc1cccc(OC)c1-n1c(NS(=O)(=O)[C@@H](C)[C@H](O)c2ncc(C)cn2)nnc1-c1cncc(C)c1 [US9845310, Example 371.0]
EC50: 32 nM
